Earlier results as cited in patent publication US10179774B2, “Synthesis of chirally purified substituted benzothiazole diamines” (priority 2007, dated 2019).

System: humans
Settings: Boehringer Ingelheim product insert; cited from earlier work

CCCNC1CCc2nc(N)sc2C1 (stereo not shown) [pramipexole]
maximally tolerated dose for humans: 4.5 mg/day
